Results taken from paper PMC7206793 (Science (New York, N.Y.), 2019).

Target: T1, Flag (N-terminus)- and V5 (C-terminus)-tagged recombinant human Lmbr1l protein (human, UniProt Q6UX01 1-489)
T1 sequence (looked up): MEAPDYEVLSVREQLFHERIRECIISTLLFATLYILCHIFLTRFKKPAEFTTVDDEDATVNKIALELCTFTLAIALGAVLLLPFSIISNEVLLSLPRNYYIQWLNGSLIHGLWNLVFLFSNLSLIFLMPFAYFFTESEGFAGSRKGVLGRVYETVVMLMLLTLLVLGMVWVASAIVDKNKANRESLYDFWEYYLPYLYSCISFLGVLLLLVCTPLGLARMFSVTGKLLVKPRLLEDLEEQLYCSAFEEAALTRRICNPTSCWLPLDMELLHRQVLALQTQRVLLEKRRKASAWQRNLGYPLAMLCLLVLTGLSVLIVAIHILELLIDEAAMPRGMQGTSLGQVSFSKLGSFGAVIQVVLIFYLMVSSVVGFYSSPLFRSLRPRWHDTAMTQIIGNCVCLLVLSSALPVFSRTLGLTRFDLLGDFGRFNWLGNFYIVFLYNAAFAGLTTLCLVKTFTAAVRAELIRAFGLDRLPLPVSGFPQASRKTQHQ
Test: peptide or protein array

binding result: binds
B1: GSK-3β (on the human protein microarray) (natural protein, UniProt P49841 1-420, looked up)
chain: MSGRPRTTSFAESCKPVQQPSAFGSMKVSRDKDGSKVTTVVATPGQGPDRPQEVSYTDTKVIGNGSFGVVYQAKLCDSGELVAIKKVLQDKRFKNRELQIMRKLDHCNIVRLRYFFYSSGEKKDEVYLNLVLDYVPETVYRVARHYSRAKQTLPVIYVKLYMYQLFRSLAYIHSFGICHRDIKPQNLLLDPDTAVLKLCDFGSAKQLVRGEPNVSYICSRYYRAPELIFGATDYTSSIDVWSAGCVLAELLLGQPIFPGDSGVDQLVEIIKVLGTPTREQIREMNPNYTEFKFPQIKAHPWTKVFRPRTPPEAIALCSRLLEYTPTARLTPLEACAHSFFDELRDPNVKLPNGRDTPALFNFTTQELSSNPPLATILIPPHARIQAAASTPTNATAASDANTGDRGQTNNAASASASNST
